Measurements reported in ChEMBL document CHEMBL2203133 (J Med Chem, 2012).

Target: T1, Serine/threonine-protein kinase Chk1 (Homo sapiens, UniProt O14757)
T1 sequence (O14757 whole entry): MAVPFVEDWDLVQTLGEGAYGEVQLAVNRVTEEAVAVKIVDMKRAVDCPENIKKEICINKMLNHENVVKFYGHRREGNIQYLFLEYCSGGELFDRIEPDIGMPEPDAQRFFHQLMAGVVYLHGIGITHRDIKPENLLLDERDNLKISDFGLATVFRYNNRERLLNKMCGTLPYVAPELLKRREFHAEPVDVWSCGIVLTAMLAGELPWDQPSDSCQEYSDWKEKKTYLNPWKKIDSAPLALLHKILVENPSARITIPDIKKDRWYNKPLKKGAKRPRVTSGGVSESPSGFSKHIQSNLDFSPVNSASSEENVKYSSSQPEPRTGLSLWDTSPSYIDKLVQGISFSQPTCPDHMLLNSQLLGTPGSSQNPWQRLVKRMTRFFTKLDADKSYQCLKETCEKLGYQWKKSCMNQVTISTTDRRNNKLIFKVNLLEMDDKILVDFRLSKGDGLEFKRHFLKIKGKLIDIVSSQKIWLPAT

| IC50 | Compound |
| --- | --- |
| < 1 nM | CNc1cc(Nc2cnc(C#N)c(O[C@@H]3CCNC3)n2)ncc1-c1cnn(C)c1 |
| < 1 nM | CNc1cc(Nc2cnc(C#N)c(O[C@H]3CCNC3)n2)ncc1-c1cnn(C)c1 |

| Compound | IC50 |
| --- | --- |
| CNc1cc(Nc2cnc(C#N)c(O[C@@H]3CCNC3)n2)ncc1C(=O)OC | 5.4 nM |
